Laboratory results reported in article PMC1977344 (British Journal of Cancer, 1992).

Protein sequences, listed by entry. Tags and fused reporters are not part of them.
UniProt P33535, whole entry: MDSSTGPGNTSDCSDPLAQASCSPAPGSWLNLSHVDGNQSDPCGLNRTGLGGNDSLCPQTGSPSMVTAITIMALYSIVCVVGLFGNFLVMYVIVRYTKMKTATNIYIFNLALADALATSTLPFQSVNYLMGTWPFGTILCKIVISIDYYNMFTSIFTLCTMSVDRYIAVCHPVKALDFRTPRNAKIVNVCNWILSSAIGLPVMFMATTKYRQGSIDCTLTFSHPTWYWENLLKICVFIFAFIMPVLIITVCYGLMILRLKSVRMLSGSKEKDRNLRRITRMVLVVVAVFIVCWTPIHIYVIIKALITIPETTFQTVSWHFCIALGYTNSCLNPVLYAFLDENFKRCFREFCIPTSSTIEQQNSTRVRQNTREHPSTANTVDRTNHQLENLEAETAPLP

Target: mu 1 receptor (Rattus norvegicus, UniProt P33535)
Experiment: Radioligand binding, mu 1 assay (3H-DSLET displacement with DPDPE block, rat brain P2 homogenate)
Set-up: species or system Wistar rats
Conditions: unlabelled ligand, Figure 1

[D-Ser2, Leu5]-enkephalin [DSLET]
affinity at mu 1 receptor relative to morphine and M6G: higher affinity than either compound
